# Bioassay records from PubChem.
# Sampled rows, rich in hits. Any-hit rate of the full collection: about 0.24%.
# PTHR1 agonist: activates the human parathyroid hormone receptor PTHR1; 0.075% of 410,000 active; HEK293 GP2 PTHR1 cells, GloSensor cAMP luminescence, 1 h; Q03431; Potency, µM (highest dose often 115 µM), inactives show at the top dose activation, hits mostly activators; further: potency means the concentration at half of the fitted maximal effect; nearly all actives have a fitted effect of over 55% in size
#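 HEK-293-derived GP2 cells expressing PTHR1 and a GloSensor cAMP reporter, 3,000/well, plated overnight, given luciferin plus IBMX (each 0.5 mM as added) for 1 h at 37 °C, then compound for 1 h at 37 °C. Luminescence was read after 15 min at room temperature.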
# GLS inhibitor: glutaminase GLS (human) inhibition. AID 624170. 0.21% of 410,000 active. Potency, µM (top dose mostly 45.5 µM), inactives show top-dose activity change, negative = inhibition, most hits filed as inhibitors. GLS enzymatic activity, qHTS titration; further: potency means the concentration at half of the fitted maximal effect; on the % scale 0 is the no-effect control and ±100 the full control effect
#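 Compounds were pin-transferred onto hKGA, after which L-glutamine (1 mM solution) and a detection mix of glutamate oxidase, HRP and Amplex Red were added. Initial and 30 min RT fluorescence reads were collected.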
# Eya2 inh: Eya2 (human) phosphatase inhibition; recombinant Eya2, OMFP fluorescence dephosphorylation (OMFP is methylfluorescein phosphate); Potency, µM (series often up to 76.9 µM), without a hit: at the top dose activity, negative = inhibition, hits mostly inhibitors; 0.006% of 330,000 active; AID 488837; O00167; further: potency means the concentration at half of the fitted maximal effect; on the % scale 0 is the no-effect control and ±100 the full control effect
#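 Eya2 (0.2 uM) preincubated 10 min at ambient with compound, then OMFP substrate added at 50 uM; 10 min reaction in 50 mM HEPES pH 7.5, 50 mM NaCl, 5 uM MgCl2, 0.05% BSA, 1 mM DTT. Fluorescence read at Ex 485/Em 525 nm.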
# TSG101-PTAP inh: blocks PTAP/TSG101 interaction to inhibit HIV-1 budding; Potency, µM (highest dose often 115 µM), inactives show at the highest dose activity change, negative = inhibition, usual class: inhibitors; Fluorescence polarization, FITC-PTAP peptide / Tsg101 binding; 340,000 tested, under 10 active; Q99816; active means well fitted inhibition curve with a large enough effect in the main read-out, with a control signal flat, not every such curve was filed as active; inconclusive means small, poorly fitted or top-dose-only effect, or effect the other way, or a change in a side signal; inactive means no such curve, though single readings can be large or run the other way; further: potency means the concentration at half of the fitted maximal effect; % of control where 0% means no effect
#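 FP read-out: FITC-PTAP peptide, 50 nM final, binding Tsg101 binding domain, 10 uM final; 20 min, r.t.; 10 mM HEPES pH 7.5, 0.15 M NaCl, 0.01% Tween 20, 3 mM EDTA, 0.1 mM TCEP.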
# USP2a inh: inhibitors of human ubiquitin-specific protease USP2a | AID 463254 | USP2 core, Ub-CHOP2 coupled fluorogenic reporter, 485/531 | Potency, µM (top dose mostly 38.3 µM), for inactives: at the highest dose activity change, negative = inhibition, usual class: inhibitors | 0.01% of 330,000 active;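 further: potency means the concentration at half of the fitted maximal effect; plate controls were DMSO wells for no effect and full inhibition by NEM control for full effect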
#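 USP2 core (10nM final) preincubated 30min RT with compound in 20mM Tris-HCl pH 8.0, 2mM CaCl2, 2mM beta-mercaptoethanol, 0.05% CHAPS; 25nM Ub-CHOP2 plus 25nM reporter substrate added, fluorescence (Ex485/Em531) read after 60min.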
# miR-21 reporter: miR-21 reporter, rising signal | HeLa miR-21 FLuc reporter, luciferase, 48 h | Potency, µM (doses to about 38.3 µM), inactives show at the top dose reporter change, positive = more light | 340,000 tested, under 10 active | AID 2288; active = well fitted rising curve with a large enough effect; inconclusive = small, poorly fitted or top-dose-only effect; inactive = no such curve, though single readings can be large or run the other way;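 note: % of control where 0% means no effect; miR-21 action dims this reporter so a rising signal means less miR-21 action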
#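 Compounds were titrated across several concentrations (up to approximately 40 uM) and incubated 48 hours with HeLa miR-21-FLuc reporter cells (miR-21 target sequence downstream of FLuc, endogenous miR-21). Readout was firefly luciferase luminescence after lytic detection reagent.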
# Active calls of the source: *; i = inactive; u = inconclusive; x = not tested or not shown; [ ] = remark or other dose. Unless noted, the call rests on the fitted dose curve; in most records, active means well fitted curve in the direction sought with a large enough effect; inconclusive means small, poorly fitted or top-dose-only effect, or another doubt; inactive means no such curve, though single readings can be large; an effect the other way counts as inactive or inconclusive.
# Letters – A = PTHR1 agonist; B = GLS inhibitor; C = Eya2 inh; D = TSG101-PTAP inh; E = USP2a inh; F = miR-21 reporter
1) CCOc1ccc(C(=O)c2cn(CC(=O)Nc3ccc(F)cc3)c3cc4c(cc3c2=O)OCCO4)cc1
  A = i | B = -4.0% | C = x | D = x | E = x | F = -2.3%
2) O=c1[nH]c(=O)c2nc(-c3ccc(Cl)cc3)cnc2[nH]1
  A = 14.1µM* | B = -11.2% | C = 2.1% | D = -0.6% | E = 0.4% | F = -17.6%
3) C[C@@H](C(=O)O)c1ccc(C2CCCCC2)c2ccccc12
  A = x | B = 1.2% | C = x | D = x | E = x | F = x
4) COc1cc(CN2CCN(Cc3ccc(C)cc3)C(CCO)C2)cc(OC)c1O (configuration not stated)
  A = i | B = 7.08µM* | C = 4.8% | D = -1.1% | E = 1.8% | F = -4.8%
5) Cn1c(N2CCOCC2)nc2c1c(=O)n(Cc1ccc(Cl)cc1)c(=O)n2C
  A = u | B = 12.6µM* | C = x | D = -5.9% | E = x | F = x
6) Cn1c(N2CCCCC2)nc2c1c(=O)n(Cc1cccc(Br)c1)c(=O)n2C
  A = i | B = -7.9% | C = 12.4% | D = -1.1% | E = -3.1% | F = -4.2%
7) Cn1c(N2CCC(C(N)=O)CC2)nc2c1c(=O)n(Cc1ccc(Br)cc1)c(=O)n2C
  A = i | B = 12.6µM* | C = x | D = -4.2% | E = x | F = x
8) CC(O)CNc1nc2c(c(=O)n(Cc3ccc(Br)cc3)c(=O)n2C)n1C (configuration not stated)
  A = i | B = 20µM* | C = -3.2% | D = -12.4% | E = 0.2% | F = 5.0%
9) N[C@@H](C(=O)N[C@H]1C(=O)N2C(C(=O)O)=C(Cl)CC[C@H]12)c1ccccc1
  A = x | B = 1.0% | C = x | D = x | E = x | F = x
10) OCC1OC(OC2C(CO)OC(OC3C(CO)OC(O)C(O)C3O)C(O)C2O)C(O)C(O)C1O (configuration not stated)
  A = x | B = 0.4% | C = x | D = x | E = x | F = x
11) CCCCn1c(N)c(N(CCOC)C(=O)CN(C)CC(=O)Nc2ccc(Cl)c(Cl)c2)c(=O)[nH]c1=O
  A = 50.1µM* | B = 1.0% | C = -30.8% | D = 0.4% | E = 3.5% | F = x
12) COc1cccc(CNC(=O)CN2C(=O)N(c3ccc(C)cc3C)S(=O)(=O)c3ccccc32)c1OC
  A = -16.7% | B = -8.4% | C = x | D = x | E = x | F = u
13) Cc1cc(Br)cc2c1NC(=O)C2(c1c(C)n(C)n(-c2ccccc2)c1=O)c1c(C)n(C)n(-c2ccccc2)c1=O
  A = -24.4% | B = 2.9% | C = -4.7% | D = -5.6% | E = 0.9% | F = -9.0%
14) COc1cc(C2(c3ccc(O)c(OC)c3)C(=O)Nc3c(C)cc(Br)cc32)ccc1O
  A = -23.9% | B = 2.51µM* | C = x | D = -2.7% | E = x | F = x
15) COc1ccc([C@]23Cc4cc(C#N)ccc4C(O2)c2c(c4ccc(OC)cc4oc2=O)O3)cc1
  A = x | B = x | C = 3.9%[15.4 µM] | D = x | E = 0.4%[7.66 µM] | F = -2.1%[7.66 µM]

# The listing continues:
# Letters – A = PTHR1 agonist; B = GLS inhibitor; C = Eya2 inh; D = TSG101-PTAP inh; E = USP2a inh; F = miR-21 reporter
16) CC(C)CCN1C(=O)CC(NNC(=O)c2ccc(S(=O)(=O)N3CCCC3)cc2)C1=O (configuration not stated)
  A = i | B = -1.0% | C = -11.3% | D = 1.1% | E = 2.5% | F = -1.3%
17) COCCN1C(=O)CC(NNC(=O)c2ccc(S(=O)(=O)N3CCCC3)cc2)C1=O (configuration not stated)
  A = 2.5% | B = 10µM* | C = 0.1% | D = -4.3% | E = -0.8% | F = 2.6%
18) Cc1ccn2c(NC(C)(C)C)c(-c3cccs3)nc2c1
  A = -8.7% | B = 6.31µM* | C = -11.4% | D = -0.5% | E = 0.0% | F = -1.6%
19) C/C(=N/Nc1ccccc1C(=O)O)c1cccs1
  A = -24.8% | B = 12.6µM* | C = 17.5% | D = -0.6% | E = -0.8% | F = -73.6%
20) Cc1nc2ccc(S(=O)(=O)NC(CC(C)C)C(=O)NCc3ccc(Cl)cc3)cc2s1 (configuration not stated)
  A = -23.8% | B = -0.9% | C = x | D = x | E = x | F = 8.4%
21) O=S(=O)(Nc1cccc2ccccc12)c1cccs1
  A = -55.8% | B = 21.9% | C = -2.9% | D = 0.1% | E = 1.9% | F = -20.9%
22) O=S(=O)(Nc1ccc(O)c2ccccc12)c1cccs1
  A = i | B = 11.2µM* | C = 9.7% | D = 2.2% | E = 0.5% | F = 24.0%
23) COc1cc(/C=C/c2nc3cc(Cl)ccc3c(=O)n2-c2ccc(C)cc2C)cc(OC)c1OC
  A = -20.0% | B = 7.3% | C = x | D = x | E = x | F = -1.3%
24) Cc1ccc(OCc2ccoc2C(=O)O)cc1C
  A = i | B = 17.8µM* | C = 12.4% | D = -2.9% | E = -0.3% | F = -19.1%
25) Cc1ccc(OCc2ccc(C(=O)O)o2)cc1C
  A = -25.0% | B = 2.5% | C = -22.0% | D = -13.0% | E = 0.0% | F = -52.8%
26) COC1=C(Nc2ccc(O)cc2)C(=O)c2ccccc2C1=O
  A = i | B = 7.94µM* | C = -2.7% | D = -3.3% | E = -1.6% | F = -2.1%
27) O=C1C(Cl)=C(Nc2ccc(O)cc2)C(=O)c2ccccc21
  A = -32.9% | B = 1.26µM* | C = 4.2% | D = -1.3% | E = 7.5% | F = u
28) CC1CCN(c2oc(-c3cccs3)nc2S(=O)(=O)c2ccc(Cl)cc2)CC1
  A = -31.4% | B = 1.3% | C = x | D = x | E = x | F = 6.5%
29) CC(C)(C)C1=CC(=O)C(=O)C(C(C)(C)C)=C1
  A = -40.5% | B = 5.62µM* | C = -8.4% | D = -6.7% | E = -0.3% | F = 4.5%
30) CC(C)(C)C1=CC(=Nc2ccccc2N)C=C(C(C)(C)C)C1=O
  A = -88.2% | B = 7.1% | C = 2.3% | D = -1.0% | E = -0.5% | F = -7.6%

# Ordered by the number under GLS inhibitor (highest first): 3 from the list above.
no. | SMILES | GLS inhibitor
19 | C/C(=N/Nc1ccccc1C(=O)O)c1cccs1 | 12.6µM*
18 | Cc1ccn2c(NC(C)(C)C)c(-c3cccs3)nc2c1 | 6.31µM*
29 | CC(C)(C)C1=CC(=O)C(=O)C(C(C)(C)C)=C1 | 5.62µM*

# Following part
# Letters – A = PTHR1 agonist; B = GLS inhibitor; C = Eya2 inh; D = TSG101-PTAP inh; E = USP2a inh; F = miR-21 reporter
31) Cc1[nH]c(=S)c(C#N)c(C)c1CC(=O)c1ccc(Br)cc1
  A = 14.1µM* | B = -17.0% | C = 5.9% | D = -1.7% | E = -0.3% | F = 6.1%
32) CSCC[C@H](NC(=O)[C@@H](Cc1ccc(O[S+](=O)([O-])O)cc1)NC(=O)[C@H](N)CC(=O)O)C(=O)NCC(=O)N[C@@H](Cc1c[nH]c2ccccc12)C(=O)N[C@H](CCSC)C(=O)N[C@H](CC(=O)O)C(=O)N[C@@H](Cc1ccccc1)C(N)=O
  A = x | B = -14.3% | C = x | D = x | E = x | F = x
33) COc1ccc(C(=O)OCC(=O)N2CCc3ccccc3C2)cc1OC
  A = -1.6% | B = -10.8% | C = 1.8% | D = -1.0% | E = 1.6% | F = x
34) CC(=O)Oc1cc(C(=O)OCC(=O)N2CCc3ccccc3C2)cc(OC(C)=O)c1OC(C)=O
  A = -14.7% | B = 6.31µM* | C = -5.6% | D = -2.4% | E = 3.5% | F = x
35) CCN(CC)c1ccc(NC(=S)NC(=O)c2ccco2)cc1
  A = -36.1% | B = 10µM* | C = 2.5% | D = -3.0% | E = -2.0% | F = -57.8%
36) CCN(CC)c1ccc(/C=C2\CCC(/C=N/NC(=O)c3ccc(=O)n(C)c3)=C2N2CCOCC2)cc1
  A = i | B = 7.08µM* | C = -2.4% | D = u | E = 3.9% | F = -4.3%
37) CC(=O)c1cccc(OCC(=O)N(C)CC(=O)NCc2ccco2)c1
  A = i | B = 12.6µM* | C = -12.7% | D = -4.0% | E = 10.5% | F = x
38) Cc1ccc(OCC(=O)N(C)CC(=O)NCc2ccco2)c(Br)c1
  A = -12.0% | B = 84.1% | C = -7.7% | D = -1.1% | E = -0.7% | F = x
39) O=C(NN1C(=O)/C(=C/C=C/c2ccco2)SC1=S)c1ccncc1
  A = -9.0% | B = 7.94µM* | C = 1.7% | D = -4.3% | E = u | F = -0.5%
40) CC(c1ncncc1F)[C@](O)(Cn1cncn1)c1ccc(F)cc1F (some centres not stated)
  A = x | B = 1.6% | C = x | D = x | E = x | F = x
41) CN(C)CCNC(=O)c1ccc(-n2c(-c3ccccc3)cc3c2CCCC3)cc1
  A = i | B = 5.8% | C = x | D = x | E = x | F = 20.5%
42) CCOC(=O)c1cc(-c2ccccc2)n(CCCC(=O)Nc2cc(C)ccc2OC)c1C
  A = i | B = -3.2% | C = x | D = x | E = x | F = 0.7%
